System: A431 cells
Assay: Effect of Gefitinib, Elrotinib on proliferation of A431 cells stimulated with human HB-EGF
Assay type: cell-based
Settings: low adhesion plate
Experimental: Each plate was cultured by being stood still in a CO2 incubator (37° C., 5% CO2). […] To the culture medium on days 4, 6 and 8 was added an ATP reagent (150 μL) (CellTiter-Glo (registered trade mark) Luminescent Cell Viability Assay, manufactured by Promega) to give a suspension, which was stood for about 10 min at room temperature, and the luminescence intensity (RLU value) was measured by FlexStation3 (manufactured by Molecular Devices), and the number of viable cells was measured by subtracting the luminescence value of the medium alone.

SMILES: COc1cc2ncnc(Nc3ccc(F)c(Cl)c3)c2cc1OCCCN1CCOCC1 [Gefitinib]
- % Control value of the RLU value (ATP measurement, luminescence intensity) (drug 0.1 μM, day 4, 0.015% (w/v) deacylated gellan gum medium): 83%
- % Control value of the RLU value (ATP measurement, luminescence intensity) (drug 0.1 μM, day 8, 0.015% (w/v) deacylated gellan gum medium): 68%
- % Control value of the RLU value (ATP measurement, luminescence intensity) (drug 0.3 μM, day 4, 0.015% (w/v) deacylated gellan gum medium): 82%
- % Control value of the RLU value (ATP measurement, luminescence intensity) (drug 0.3 μM, day 8, 0.015% (w/v) deacylated gellan gum medium): 45%
- % Control value of the RLU value (ATP measurement, luminescence intensity) (drug 1 μM, day 4, 0.015% (w/v) deacylated gellan gum medium): 10%
- % Control value of the RLU value (ATP measurement, luminescence intensity) (drug 1 μM, day 8, 0.015% (w/v) deacylated gellan gum medium): 2%
- % Control value of the RLU value (ATP measurement, luminescence intensity) (drug 3 μM, day 4, 0.015% (w/v) deacylated gellan gum medium): 3%
- % Control value of the RLU value (ATP measurement, luminescence intensity) (drug 3 μM, day 8, 0.015% (w/v) deacylated gellan gum medium): 0%
